The values that follow are results of earlier work, collected in patent US5502037A, “Pro-cytotoxic drug conjugates for anticancer therapy” (priority 1993, dated 1996).

The structures appear in SMILES notation.

The test system of the series is Yoshida ascites sarcoma. The conditions noted are these: Brock, 1976, cited from earlier work.

Take `NP(=O)(OCCC(=O)O)N(CCCl)CCCl` (centres unmarked): the “In vivo activities: LD50” value (lethal dose, rat) was ~ 800 mg/kg. Further, the D50 Index (LD50/CD50) (therapeutic index, Yoshida ascites sarcoma in rat) is 4.
